Experimental findings from PubChem BioAssay (Tox21) are described below.

By UniProt entry, the sequences of proteins in these tests, tags left out.
UniProt P07550, whole entry: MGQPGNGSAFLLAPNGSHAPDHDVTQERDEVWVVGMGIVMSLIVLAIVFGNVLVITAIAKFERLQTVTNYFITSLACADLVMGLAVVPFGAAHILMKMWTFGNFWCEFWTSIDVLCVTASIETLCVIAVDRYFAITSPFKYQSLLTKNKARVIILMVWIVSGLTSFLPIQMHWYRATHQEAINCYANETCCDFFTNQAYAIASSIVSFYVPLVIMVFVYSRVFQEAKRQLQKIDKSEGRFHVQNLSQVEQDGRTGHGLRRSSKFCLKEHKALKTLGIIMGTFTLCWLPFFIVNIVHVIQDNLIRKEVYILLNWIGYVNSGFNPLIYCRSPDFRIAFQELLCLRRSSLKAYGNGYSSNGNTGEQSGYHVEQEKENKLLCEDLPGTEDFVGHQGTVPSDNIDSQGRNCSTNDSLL
UniProt P14416, whole entry: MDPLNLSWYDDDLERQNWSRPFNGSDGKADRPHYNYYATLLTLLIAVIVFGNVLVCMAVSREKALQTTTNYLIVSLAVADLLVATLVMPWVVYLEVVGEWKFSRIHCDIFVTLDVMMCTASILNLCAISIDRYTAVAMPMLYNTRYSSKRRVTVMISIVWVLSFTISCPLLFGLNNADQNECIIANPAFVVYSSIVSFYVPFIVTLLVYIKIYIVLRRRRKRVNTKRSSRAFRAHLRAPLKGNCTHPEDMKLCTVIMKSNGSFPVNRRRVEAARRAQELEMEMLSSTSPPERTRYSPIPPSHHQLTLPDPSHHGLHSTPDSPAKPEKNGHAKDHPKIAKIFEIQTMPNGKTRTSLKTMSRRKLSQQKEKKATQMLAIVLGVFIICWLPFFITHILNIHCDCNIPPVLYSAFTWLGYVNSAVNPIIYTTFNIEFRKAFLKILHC
UniProt P30968, whole entry: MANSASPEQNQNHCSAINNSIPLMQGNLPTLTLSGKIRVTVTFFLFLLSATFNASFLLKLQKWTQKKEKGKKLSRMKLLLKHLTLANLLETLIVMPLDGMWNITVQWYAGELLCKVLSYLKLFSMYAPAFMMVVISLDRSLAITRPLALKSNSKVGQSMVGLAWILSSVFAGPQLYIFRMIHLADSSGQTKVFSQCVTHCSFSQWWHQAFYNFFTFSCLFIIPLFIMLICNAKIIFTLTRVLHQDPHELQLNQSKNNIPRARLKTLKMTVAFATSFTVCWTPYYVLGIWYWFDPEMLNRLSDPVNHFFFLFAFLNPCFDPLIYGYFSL
UniProt Q969F8, whole entry: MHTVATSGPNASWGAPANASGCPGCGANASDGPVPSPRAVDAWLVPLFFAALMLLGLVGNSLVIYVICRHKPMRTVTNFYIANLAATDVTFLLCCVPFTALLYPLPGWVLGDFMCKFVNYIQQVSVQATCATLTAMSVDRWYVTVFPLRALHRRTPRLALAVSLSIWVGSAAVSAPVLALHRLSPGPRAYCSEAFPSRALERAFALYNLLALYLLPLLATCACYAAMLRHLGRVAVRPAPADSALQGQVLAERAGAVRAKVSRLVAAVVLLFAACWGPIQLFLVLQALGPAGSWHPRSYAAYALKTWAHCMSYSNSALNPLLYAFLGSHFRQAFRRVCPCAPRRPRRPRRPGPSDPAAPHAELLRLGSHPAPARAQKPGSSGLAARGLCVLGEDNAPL
UniProt P28223, whole entry: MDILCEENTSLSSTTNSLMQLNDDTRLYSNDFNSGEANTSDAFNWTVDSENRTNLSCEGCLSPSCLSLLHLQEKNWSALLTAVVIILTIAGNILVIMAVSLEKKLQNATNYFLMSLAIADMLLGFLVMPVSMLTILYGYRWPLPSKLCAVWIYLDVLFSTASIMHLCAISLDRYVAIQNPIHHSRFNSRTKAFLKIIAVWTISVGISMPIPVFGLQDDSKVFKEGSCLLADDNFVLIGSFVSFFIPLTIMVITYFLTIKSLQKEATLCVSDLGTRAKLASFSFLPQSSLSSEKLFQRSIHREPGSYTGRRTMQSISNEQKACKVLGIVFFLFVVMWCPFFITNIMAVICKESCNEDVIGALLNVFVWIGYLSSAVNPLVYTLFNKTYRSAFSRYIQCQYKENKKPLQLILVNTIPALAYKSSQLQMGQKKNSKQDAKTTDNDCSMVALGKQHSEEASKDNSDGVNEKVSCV
UniProt P11229, whole entry: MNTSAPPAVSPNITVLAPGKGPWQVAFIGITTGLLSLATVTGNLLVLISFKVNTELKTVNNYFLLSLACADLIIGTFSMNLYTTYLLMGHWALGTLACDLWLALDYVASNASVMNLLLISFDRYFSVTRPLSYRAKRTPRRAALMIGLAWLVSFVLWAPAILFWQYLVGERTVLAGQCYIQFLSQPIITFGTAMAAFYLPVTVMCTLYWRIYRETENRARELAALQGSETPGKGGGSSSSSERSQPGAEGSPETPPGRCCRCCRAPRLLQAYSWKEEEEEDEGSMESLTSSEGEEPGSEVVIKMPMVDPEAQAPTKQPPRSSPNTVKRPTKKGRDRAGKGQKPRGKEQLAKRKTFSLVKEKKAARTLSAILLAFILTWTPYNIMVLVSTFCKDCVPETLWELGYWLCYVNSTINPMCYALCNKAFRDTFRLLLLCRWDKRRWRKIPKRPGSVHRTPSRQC

Only a part is listed here, and it is no random draw. Results filed as inconclusive are left out. Calls of active or inactive are those of the source. Unless noted, calls follow the shape of the full dose curve.

The target of assay [1] is Beta-2 adrenergic receptor (Homo sapiens) (UniProt P07550). The assay is described as follows: Adrenergic beta2 receptor (ADRB2) small molecule antagonists, cell-based qHTS assay (AID 1963592). Also: potency is read from the fitted curve at half-maximal effect; nearly all actives have a fitted effect of over 50% in size. To be noted: CHO-ADRB2 cells, isoproterenol-stimulated cAMP HTRF ratio, 0.5 h. In outline:
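Assay format: CHO-ADRB2 cells, 18-20hr seeding at 37C/5% CO2, then compound plus 1nM isoproterenol agonist mix for 0.5hr RT. Homogeneous time-resolved fluorescence cAMP detection after 1hr, expressed as 665/615 nm ratio.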
For orientation: In qHTS, concentration-response curves come from the screen itself.

Assay [2] deals with D(2) dopamine receptor (Homo sapiens) (UniProt P14416). The assay is described as follows: Dopamine D2 receptor (DRD2) small molecule antagonists, cell-based qHTS assay (AID 1963595; active = well fitted inhibition curve with a large enough effect in the signal ratio in the repeat runs, with a control signal flat; the % refers to the signal ratio; also: potency is read from the fitted curve at half-maximal effect). The conditions noted are these: HEK293-DRD2 cAMP HTRF antagonist mode. The method in brief:
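Cells were plated and grown for 24 h at 37 °C. Ro20-1724 (0.1 mM final) went in first, then compound for 10 min. NKH477 (200 nM) with quinpirole (12 nM) followed for 30 min at RT, then HTRF detection reagents for 1 h.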

Assay [3] in a line: Nuclear factor erythroid 2-related factor 2/antioxidant responsive element (Nrf2/ARE) small molecule agonists: luciferase reporter gene qHTS assay in human keratinocytes (AID 1919969). Also: potency is read from the fitted curve at half-maximal effect; nearly all actives have a fitted effect of over 35% in size. To be noted: KeratinoSens HaCaT ARE-luciferase, luminescence, 24 h. From the text:
National Center for Advancing Translational Sciences [NCATS]
Division of Preclinical Innovation [DPI]
U.S. Environmental Protection Agency [EPA]
National Institutes of Environmental Health Sciences [NIEHS]
National Toxicology Program [NTP]
U.S. Food and Drug Administration [FDA]
Oxidative stress has been implicated in the pathogenesis of a variety of diseases ranging from cancer to neurodegeneration. The antioxidant response element (ARE) signaling pathway plays an important role in the amelioration of oxidative stress. The KeratinoSens (Givaudan, Switzerland) is an in vitro test method which quantifies luciferase induction as a measure of activation of Keap1-Nrf2-antioxidationt/electrophile response element (ARE) dependant pathway in HaCaT human keratinocytes stably transfected with a selectable plasmid. The KeratinoSens assay is a cell-based assay with a reporter cell line to detect potential skin sensitizers by their ability to induce the Nrf2/ARE-response. The activation of the report gene under culture conditions can be detected by ONE-Glo Luciferase Assay System (Promega, Madison, WI). This cell line has been used to screen the Tox21 10K compound library to identify agonists that induce oxidative stress. […]
HaCaT derived cell line KeratinoSens were dispensed at 1,500 cells/5uL/well in 1536-well white wall/solid bottom plates using a Multidrop Combi (ThermoFisher Scientific, Waltham, MA) dispenser. […] The plates were incubated at 37 C/5% CO2 for 23 h, followed by addition of 1uL/well of CellTiter-Fluor reagent into the assay plates using a Flying Reagent Dispenser (Aurora Discovery, San Diego, CA) for cell viability readout that measures cytotoxicity. After 1 h incubation at 37 C/5% CO2 the fluorescence intensity was measured using a ViewLux (PerkinElmer, Shelton, CT) plate reader. […] After the plates were incubated at room temperature for 30 min, the luminescence intensity in the assay plates was measured using ViewLux plate reader.

In assay [4] the target is Gonadotropin-releasing hormone receptor (Homo sapiens) (UniProt P30968). The assay is described as follows: Human gonadotropin-releasing hormone receptor (GnRHR) small molecule agonists, calcium flux assay in GnRHR-HEK293 cells (AID 1920063). Also: potency is read from the fitted curve at half-maximal effect; nearly all actives have a fitted effect of over 35% in size. To be noted: calcium flux fluorescence, agonist mode. In outline:
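Agonist mode: compounds at 15 concentrations, in triplicate, went onto calcium dye-loaded GnRHR-HEK293 cells. Intracellular calcium was then followed as 480/540 nm fluorescence at 1 s intervals over 3 min.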

Assay [5] concerns the target KiSS-1 receptor (Homo sapiens) (UniProt Q969F8). The assay is described as follows: Human kisspeptin (KISS1R) small molecule agonists, calcium flux assay in KISS1R-HEK293 cells (AID 1920064; active = well fitted curve in the direction sought with a large enough effect in the repeat runs; an effect the other way counts as inactive or inconclusive; also: potency is read from the fitted curve at half-maximal effect). The conditions noted are these: KISS1R-HEK293, calcium flux fluorescence, agonist. In outline: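 Agonist mode: intracellular calcium rise tracked at 1 s intervals over 3 min (480/540 nm) immediately after compound addition to dye-loaded KISS1R-HEK293 stable cells. Each compound tested at 15 concentrations in triplicate.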

The target in assay [6] is 5-hydroxytryptamine receptor 2A (Homo sapiens) (UniProt P28223). The assay can be described thus: 5-hydroxytryptamine receptor 2A (HTR2A) small molecule agonists, cell-based qHTS assay (AID 1963587). Also: potency is read from the fitted curve at half-maximal effect; nearly all actives have a fitted effect of over 30% in size. To be noted: HTR2A-CHO cells, calcium flux fluorescence, agonist mode. The method in brief: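 CHO cells stably expressing human HTR2A, plated 18 h, loaded with calcium dye 1 h at 37 C. Agonist mode: compounds added and intracellular calcium fluorescence recorded kinetically for 2 min at 1 sec intervals.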

Assay [7] can be described thus: Nuclear factor erythroid 2-related factor 2/antioxidant responsive element (Nrf2/ARE) small molecule agonists: qHTS cell viability counter screen in human keratinocytes (AID 1919968; active = well fitted curve in the direction sought with a large enough effect in the repeat runs; an effect the other way counts as inactive or inconclusive; also: nearly all actives have a fitted effect of over 55% in size; also: potency is read from the fitted curve at half-maximal effect). The conditions noted are these: KeratinoSens HaCaT ARE cells viability, CellTiter-Fluor, 24 h; series mostly up to 92.4 µM. The method in brief:
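CellTiter-Fluor fluorescence, read 1 h after reagent, gave viability in the same wells as the ARE-luciferase assay. KeratinoSens cells (1,500/well) had 23 h compound exposure at 37 C/5% CO2 following 5 h plating.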

Assay [8] in a line: p53 small molecule agonists, cell-based qHTS assay with human liver microsomes: qHTS cell viability counter screen (AID 1963579). Also: potency is read from the fitted curve at half-maximal effect; nearly all actives have a fitted effect of over 45% in size. To be noted: p53RE-bla HCT-116 viability, ATP luminescence, 16 h, HLM. The method in brief: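 Metabolic activation used human liver microsomes and NADPH, both 0.5 mg/mL final, over 16 hours at 37 C on p53RE-bla cells (4,000/well). Cytotoxicity measured by CellTiter-Glo luminescence, 30 min at room temperature.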

In assay [9] the target is Muscarinic acetylcholine receptor M1 (Homo sapiens) (UniProt P11229). The assay is described as follows: Cholinergic receptor muscarinic 1 (CHRM1) small molecule agonists, cell-based qHTS assay (AID 1963589). Also: nearly all actives have a fitted effect of over 35% in size. Also: potency is read from the fitted curve at half-maximal effect. The conditions noted are these: CHRM1-CHO cells, agonist mode, calcium flux fluorescence; series mostly up to 35.3 µM. The method in brief: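 Agonist-mode calcium-flux screen: compounds at 15 concentrations, three independent runs, were pin-transferred onto dye-loaded human CHRM1-CHO cells. Fluorescence was then recorded kinetically every second over minutes.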

A short description of assay [10]: p53 small molecule agonists, cell-based qHTS assay with rat liver microsomes: qHTS cell viability counter screen (AID 1963580). Also: nearly all actives have a fitted effect of over 45% in size. Also: potency is read from the fitted curve at half-maximal effect. The conditions noted are these: p53RE-bla HCT-116 + rat microsomes, ATP viability, 16 h; series mostly up to 66 µM. The method in brief:
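Cytotoxicity counter screen: intracellular ATP measured by CellTiter-Glo luminescence in the same wells as the beta-lactamase reporter read, on HCT-116 p53RE-bla cells exposed 16 h at 37 C to compounds with rat liver microsomes and NADPH, each 0.5 mg/mL final.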

The nature of assay [11]: cAMP Responsive Elements (CRE) small molecule antagonists, cell-based qHTS assay (AID 1963591; active = well fitted inhibition curve with a large enough effect in the signal ratio in the repeat runs, not every such curve was filed as active; the % refers to the signal ratio; also: % is scaled to controls: 0 for no effect and ±100 for the full control effect). The conditions noted are these: CRE-bla HEK293T, beta-lactamase FRET ratio; at 92.4 µM (top of the series). The method in brief:
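Antagonist mode: compounds are added alongside the adenylyl cyclase activator NKH477 (0.25 uM final) to CRE-bla HEK293T cells for 3 h. LiveBLAzer FRET substrate, 2 h at room temperature, reports bla expression.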

Assay [12] deals with Muscarinic acetylcholine receptor M1 (Homo sapiens) (UniProt P11229). The assay can be described thus: Cholinergic receptor muscarinic 1 (CHRM1) small molecule antagonists, cell-based qHTS assay (AID 1963588). Also: % is scaled to controls: 0 for no effect and ±100 for the full control effect; nearly all actives have a fitted effect of over 40% in size. To be noted: CHRM1-CHO antagonist mode, calcium flux fluorescence; at 28.3 µM (top of the series). The method in brief:
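Compounds were tested at 15 concentrations in three independent runs. Dye-loaded CHRM1-CHO cells were exposed 5 min at room temperature before stimulation by acetylcholine added at 50nM. Intracellular calcium was read kinetically on FDSS for 3 min.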

Turning to `O=[As]c1ccccc1` (stereo not given), the Potency in [1] is active: 54.5 µM; in assay [2] it was active: 1.22 µM.

With `Cc1ccc([N+](=O)[O-])c([N+](=O)[O-])c1`, the Potency in [3] is active: 27.9 µM; in [4] it was active: 15.5 µM; in assay [5], active: 12.3 µM; in [6], active: 12.3 µM.

For `N#CSc1ccc([N+](=O)[O-])cc1[N+](=O)[O-]`, the Potency in [7] is active: 13.7 µM; in assay [8], active: 18.2 µM; in [2], active: 17.2 µM.

Regarding `Cc1cccc([N+](=O)[O-])c1[N+](=O)[O-]`, the Potency result in assay [9] is “inactive”.

Turning to `O=[N+]([O-])c1ccc([N+](=O)[O-])cc1`, the Potency in assay [3] was active: 61.1 µM.

For `O=C1C2CC=CCC2C(=O)N1SC(Cl)(Cl)C(Cl)Cl` (stereo not given), the Potency in [10] is active: 22.9 µM; in assay [9] it was active: 15.5 µM.

Turning to `CCCCCCCCCCCCCC[P+](CCCCCC)(CCCCCC)CCCCCC.F[P-](F)(F)(F)(F)F`, the Potency in assay [7] is active: 10.8 µM; in [8] it was active: 16.2 µM.

For the compound `O=C(Cl)OCCOC(=O)Cl`, the activity change, negative = inhibition in assay [11] was inactive: -1.76%.

Consider `CC(C)OP(C)(=O)OC(C)C`, for which the Potency entry in assay [7] and in [10] was “inactive” throughout. The Potency in [3] is active: 54.5 µM.

Consider `OCCSCCO`, for which, in assay [12], the activity, negative = inhibition is inactive: 0.275%.
